This test deals with D(3) dopamine receptor (Homo sapiens, UniProt P35462). The test is described as follows: biochemical.

Protein sequences, listed by entry. Tags and fused reporters are not part of them.
UniProt P35462, whole entry: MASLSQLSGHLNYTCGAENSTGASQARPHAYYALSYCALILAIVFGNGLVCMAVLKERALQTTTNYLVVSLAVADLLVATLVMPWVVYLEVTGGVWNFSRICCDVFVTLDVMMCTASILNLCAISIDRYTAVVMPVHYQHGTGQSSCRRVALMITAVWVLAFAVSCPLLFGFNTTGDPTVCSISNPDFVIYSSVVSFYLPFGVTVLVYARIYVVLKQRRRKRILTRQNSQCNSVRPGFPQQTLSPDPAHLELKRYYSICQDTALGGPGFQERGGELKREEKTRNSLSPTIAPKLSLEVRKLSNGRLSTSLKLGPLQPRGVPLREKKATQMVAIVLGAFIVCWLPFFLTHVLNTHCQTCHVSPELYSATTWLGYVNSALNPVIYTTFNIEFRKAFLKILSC

pKi: −log10 of the molar value.

As a reminder, the pKi is the negative decadic logarithm of the Ki, by convention in mol/L. A lower pKi goes with a high Ki.

`Cc1ccc(OCCCNCCOc2ccccc2)cc1` had a negative logarithm of the Ki (pKi) of 7.18.
